Results on one substance are retold here after patent US8119588B2, “Hard surface cleaner compositions of sulfonated estolides and other derivatives of fatty acids and uses thereof” (Stepan Company, priority 2009, dated 2012).

This data set in a line: Coupling ability (hydrotrope requirement) with nonionic surfactants of different HLB. It is filed as physicochemical. The method, then:
Sodium xylene sulfonate (SXS) is often used as a hydrotrope to clarify cloudy formulations. […] In Table 2, the measurement of the amount of hydrotrope or surfactant needed to clear the solution was determined.
The compositions described in Table 2 are made in accordance with the following steps: • Add the water and trisodium citrate and mix until the solution is clear. Add BIO-SOFT® N25-9 slowly until the solution is homogeneous. Add BIO-SOFT® N25-3 and mix until the solution is homogeneous. If the final solution is cloudy, then continue adding the hydrotrope or surfactant and agitate until solution is clear.

“Sodium linear alkyl benzene sulfonate [LAS]”: under “after adding hydrotrope or surfactant to cloudy nonionic blend”, the Final appearance entry is given as “did not clear,”. In addition, the “hydrotrope requirement (actives)” value (amount needed to clear blend of 5% Bio-soft N25-9, 5% Bio-Soft N25-3, 1% trisodium citrate) is reported as 8.3 % actives.
